One may read the IC50 as the concentration that gives 50% inhibition.

Here are results for 2 molecules from patent publication US20060035245, “Modulators of enzymatic nucleic acid elements mobilization” (published 2006).

Data set [1] has as its target T1, Tn5 transposase hyperactive mutant (EK54, MA56, LP372) (UniProt Q46731 Q46731:1-476, E54K,M56A,L372P).
T1 sequence: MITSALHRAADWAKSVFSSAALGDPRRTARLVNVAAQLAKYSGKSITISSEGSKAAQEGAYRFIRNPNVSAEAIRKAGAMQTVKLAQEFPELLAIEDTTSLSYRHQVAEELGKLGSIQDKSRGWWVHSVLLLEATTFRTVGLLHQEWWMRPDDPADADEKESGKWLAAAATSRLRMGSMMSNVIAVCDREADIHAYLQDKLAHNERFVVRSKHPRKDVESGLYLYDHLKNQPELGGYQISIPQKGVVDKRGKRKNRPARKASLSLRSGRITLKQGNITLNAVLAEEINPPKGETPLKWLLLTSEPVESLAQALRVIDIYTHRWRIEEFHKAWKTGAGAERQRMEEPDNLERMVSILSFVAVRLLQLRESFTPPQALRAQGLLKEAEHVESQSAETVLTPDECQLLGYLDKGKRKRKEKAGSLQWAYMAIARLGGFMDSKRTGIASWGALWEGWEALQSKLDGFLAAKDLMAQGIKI
As to the kind of experiment: EMSA; self-competition by unlabeled DNA; 160 nM labeled DNA, 800 nM transposase. As to conditions: chain copies: 2; label: fluorescein 5' end of transferred strand. The method, then:
(§1) FIG. 4 is a comparison of FP and gel shift synapsis assays. Fluorescence polarization (FP) is a good measurement of the amount of synaptic complexes being formed. Increasing concentrations of unlabeled DNA (0.001, 0.005, 0.01, 0.05, 0.1, 0.5, 1, 2, 5, 8, 10, 20, 50 μM) was used as a competitive inhibitor for synaptic complex formation using 160 nM fluorescently labeled DNA and 800 nM transposase. FP data (bottom) was compared to data obtained using gel shift assays (top). Bands labeled hetero DNA-transposase represent two dsDNA molecules, one fluorescently labeled and one unlabeled. […] Each data point represents at least two, typically three, independent experiments. Error is represented as the standard deviation (SD) from the fit of the data to the equation used to calculate the IC₅₀. Tnp=transposase.
(§2) FP and gel-shift assays: Reactions were performed as described in Ason, B., and W. S. Reznikoff, J Mol Biol 335:1213-25, 2004, except 800 nM transposase and 160 nM dsDNA were used for complex formation. For FP analysis, 60 μL reactions were analyzed using the FP protocol on a Wallac Victor V plate reader and a 7% native polyacrylamide gel was used in gel shift assays. For compound screening and subsequent analysis, 1 μL of either DMSO or test compound (final concentration 80 μM) was added to the synapsis reactions. […]

The target in data set [2] is T1, Tn5 transposase hyperactive mutant …. As to the kind of experiment: FP; self-competition by unlabeled DNA; 160 nM labeled DNA, 800 nM transposase. As to conditions: chain copies: 2; label: rhodamine green 5' end of transferred strand. The method, then:
as §1, §2

B1: 40 bp Tn5 transposon end (dsDNA)
DNA 1: CTGTCTCTTATACACATCTTGAGTGAGTGAGCATGCATGT
DNA 2: ACATGCATGCTCACTCACTCAAGATGTGTATAAGAGACAG
Regarding B1, in data set [1], the half-maximal inhibitory concentration (IC50) was 5.1 µM.

B2: 19 bp Tn5 recognition end (dsDNA)
DNA 1: CTGTCTCTTATACACATCT
DNA 2: AGATGTGTATAAGAGACAG
The molecule B2 gave a half-inhibitory concentration (IC50) in data set [2] of 2.6 µM.
